PMC10610505, “Synthesis and Biological Evaluation of Some New 3-Aryl-2-thioxo-2,3-dihydroquinazolin-4(1H)-ones and 3-Aryl-2-(benzylthio)quinazolin-4(3H)-ones as Antioxidants; COX-2, LDHA, α-Glucosidase and α-Amylase Inhibitors; and Anti-Colon Carcinoma and Apoptosis-Inducing Agents” (Pharmaceuticals, 2023)

Molecular target: purified recombinant human LDHA protein (Homo sapiens, UniProt P00338)
Test: Lactate dehydrogenase A (LDHA) inhibitory assay
Assay type: biochemical

For NC(=O)C(=O)O [Sodium oxamate, reference compound], the inhibition at 111 µg/mL (at 0.111 mg/mL (1 mM), read-out: LDHA mean % inhibition ± SD) was 100% and the IC50 (mean ± SD of three replicates) was 141 µM.
